Assay results taken from patent publication US6858018B1.
Only a part of the results on these compounds is given; other tests are left out.

Assay: in vitro iontophoretic delivery through excised porcine skin in flow-through cells
Details: 500 uA

## remifentanil hydrochloride
Exp #14, 20 mg/ml in 10 mM acetic acid, 2 mg, 1.00 hrs
  Flux: 0.00 μg/min/cm^2
Exp #14, 20 mg/ml in 10 mM acetic acid, 2 mg, 2.00 hrs
  Flux: 0.00 μg/min/cm^2
Exp #14, 20 mg/ml in 10 mM acetic acid, 2 mg, 3.00 hrs
  Flux: 0.00 μg/min/cm^2
Exp #14, 20 mg/ml in 10 mM acetic acid, 2 mg, 4.00 hrs
  Flux: 0.01 μg/min/cm^2
Exp #14, 20 mg/ml in 10 mM acetic acid, 2 mg, 5.00 hrs
  Flux: 0.02 μg/min/cm^2
Exp #14, 20 mg/ml in 10 mM acetic acid, 2 mg, 6.00 hrs
  Flux: 0.02 μg/min/cm^2
Exp #14, 20 mg/ml in 10 mM acetic acid, 2 mg, 7.00 hrs
  Flux: 0.03 μg/min/cm^2
Exp #14, 20 mg/ml in 10 mM acetic acid, 2 mg, 8.00 hrs
  Flux: 0.03 μg/min/cm^2
Exp #14, 20 mg/ml in 10 mM acetic acid, 2 mg, 9.00 hrs
  Flux: 0.02 μg/min/cm^2
Exp #14, 20 mg/ml in 10 mM acetic acid, 2 mg, 10.00 hrs
  Flux: 0.02 μg/min/cm^2
Exp #14, 20 mg/ml in 10 mM acetic acid, 2 mg, 11.00 hrs
  Flux: 0.02 μg/min/cm^2
Exp #14, 20 mg/ml in 10 mM acetic acid, 2 mg, 12.00 hrs
  Flux: 0.02 μg/min/cm^2
Exp #14, 20 mg/ml in 10 mM acetic acid, 2 mg, 13.00 hrs
  Flux: 0.03 μg/min/cm^2
Exp #14, 20 mg/ml in 10 mM acetic acid, 2 mg, 14.00 hrs
  Flux: 0.03 μg/min/cm^2
Exp #14, 20 mg/ml in 10 mM acetic acid, 2 mg, 15.00 hrs
  Flux: 0.03 μg/min/cm^2
Exp #14, 20 mg/ml in 10 mM acetic acid, 2 mg, 16.00 hrs
  Flux: 0.04 μg/min/cm^2
Exp #14, 20 mg/ml in 10 mM acetic acid, 2 mg, 17.00 hrs
  Flux: 0.05 μg/min/cm^2
Exp #14, 20 mg/ml in 10 mM acetic acid, 2 mg, 18.00 hrs
  Flux: 0.05 μg/min/cm^2
Exp #14, 20 mg/ml in 10 mM acetic acid, 2 mg, 19.00 hrs
  Flux: 0.06 μg/min/cm^2
Exp #14, 20 mg/ml in 10 mM acetic acid, 2 mg, 20.00 hrs
  Flux: 0.07 μg/min/cm^2
Exp #14, 20 mg/ml in 10 mM acetic acid, 2 mg, 21.00 hrs
  Flux: 0.07 μg/min/cm^2
Exp #14, 20 mg/ml in 10 mM acetic acid, 2 mg, 22.00 hrs
  Flux: 0.08 μg/min/cm^2
Exp #14, 20 mg/ml in 10 mM acetic acid, 2 mg, 23.00 hrs
  Flux: 0.09 μg/min/cm^2
Exp #14, 20 mg/ml in 10 mM acetic acid, 2 mg, 24.00 hrs
  Flux: 0.10 μg/min/cm^2
Exp #15, 2.5 mg/ml in 10 mM acetic acid, PVA gel, 0.375 mg, 0.00 hrs
  Flux: 0.00 μg/min/cm^2
Exp #15, 2.5 mg/ml in 10 mM acetic acid, PVA gel, 0.375 mg, 1.00 hrs
  Flux: 0.00 μg/min/cm^2
Exp #15, 2.5 mg/ml in 10 mM acetic acid, PVA gel, 0.375 mg, 2.00 hrs
  Flux: 0.00 μg/min/cm^2
Exp #15, 2.5 mg/ml in 10 mM acetic acid, PVA gel, 0.375 mg, 3.00 hrs
  Flux: 0.01 μg/min/cm^2
Exp #15, 2.5 mg/ml in 10 mM acetic acid, PVA gel, 0.375 mg, 4.00 hrs
  Flux: 0.02 μg/min/cm^2
Exp #15, 2.5 mg/ml in 10 mM acetic acid, PVA gel, 0.375 mg, 5.00 hrs
  Flux: 0.03 μg/min/cm^2
Exp #15, 2.5 mg/ml in 10 mM acetic acid, PVA gel, 0.375 mg, 6.00 hrs
  Flux: 0.04 μg/min/cm^2
Exp #15, 2.5 mg/ml in 10 mM acetic acid, PVA gel, 0.375 mg, 7.00 hrs
  Flux: 0.05 μg/min/cm^2
Exp #15, 2.5 mg/ml in 10 mM acetic acid, PVA gel, 0.375 mg, 8.00 hrs
  Flux: 0.06 μg/min/cm^2
Exp #15, 2.5 mg/ml in 10 mM acetic acid, PVA gel, 0.375 mg, 9.00 hrs
  Flux: 0.07 μg/min/cm^2
Exp #15, 2.5 mg/ml in 10 mM acetic acid, PVA gel, 0.375 mg, 10.00 hrs
  Flux: 0.07 μg/min/cm^2
Exp #15, 2.5 mg/ml in 10 mM acetic acid, PVA gel, 0.375 mg, 11.00 hrs
  Flux: 0.09 μg/min/cm^2
Exp #15, 2.5 mg/ml in 10 mM acetic acid, PVA gel, 0.375 mg, 12.00 hrs
  Flux: 0.10 μg/min/cm^2
Exp #15, 2.5 mg/ml in 10 mM acetic acid, PVA gel, 0.375 mg, 13.00 hrs
  Flux: 0.11 μg/min/cm^2
Exp #15, 2.5 mg/ml in 10 mM acetic acid, PVA gel, 0.375 mg, 14.00 hrs
  Flux: 0.10 μg/min/cm^2
Exp #15, 2.5 mg/ml in 10 mM acetic acid, PVA gel, 0.375 mg, 15.00 hrs
  Flux: 0.10 μg/min/cm^2
Exp #15, 2.5 mg/ml in 10 mM acetic acid, PVA gel, 0.375 mg, 16.00 hrs
  Flux: 0.10 μg/min/cm^2
Exp #15, 2.5 mg/ml in 10 mM acetic acid, PVA gel, 0.375 mg, 17.00 hrs
  Flux: 0.09 μg/min/cm^2
Exp #15, 2.5 mg/ml in 10 mM acetic acid, PVA gel, 0.375 mg, 18.00 hrs
  Flux: 0.08 μg/min/cm^2
Exp #15, 2.5 mg/ml in 10 mM acetic acid, PVA gel, 0.375 mg, 19.00 hrs
  Flux: 0.07 μg/min/cm^2
Exp #15, 2.5 mg/ml in 10 mM acetic acid, PVA gel, 0.375 mg, 20.00 hrs
  Flux: 0.07 μg/min/cm^2
Exp #15, 2.5 mg/ml in 10 mM acetic acid, PVA gel, 0.375 mg, 21.00 hrs
  Flux: 0.07 μg/min/cm^2
Exp #15, 2.5 mg/ml in 10 mM acetic acid, PVA gel, 0.375 mg, 22.00 hrs
  Flux: 0.06 μg/min/cm^2
Exp #15, 2.5 mg/ml in 10 mM acetic acid, PVA gel, 0.375 mg, 23.00 hrs
  Flux: 0.06 μg/min/cm^2
Exp #15, 2.5 mg/ml in 10 mM acetic acid, PVA gel, 0.375 mg, 24.00 hrs
  Flux: 0.06 μg/min/cm^2
Exp #15, 2.5 mg/ml in 10 mM acetic acid, PVA gel, 0.375 mg, −1.00 hrs
  Flux: 0.00 μg/min/cm^2
Exp #16, 10 mg/ml in 10 mM acetic acid, PVA gel, 1.5 mg, 0.00 hrs
  Flux: 0.00 μg/min/cm^2
Exp #16, 10 mg/ml in 10 mM acetic acid, PVA gel, 1.5 mg, 1.00 hrs
  Flux: 0.00 μg/min/cm^2
Exp #16, 10 mg/ml in 10 mM acetic acid, PVA gel, 1.5 mg, 2.00 hrs
  Flux: 0.00 μg/min/cm^2
Exp #16, 10 mg/ml in 10 mM acetic acid, PVA gel, 1.5 mg, 3.00 hrs
  Flux: 0.01 μg/min/cm^2
Exp #16, 10 mg/ml in 10 mM acetic acid, PVA gel, 1.5 mg, 4.00 hrs
  Flux: 0.02 μg/min/cm^2
Exp #16, 10 mg/ml in 10 mM acetic acid, PVA gel, 1.5 mg, 5.00 hrs
  Flux: 0.03 μg/min/cm^2
Exp #16, 10 mg/ml in 10 mM acetic acid, PVA gel, 1.5 mg, 6.00 hrs
  Flux: 0.03 μg/min/cm^2
Exp #16, 10 mg/ml in 10 mM acetic acid, PVA gel, 1.5 mg, 7.00 hrs
  Flux: 0.04 μg/min/cm^2
Exp #16, 10 mg/ml in 10 mM acetic acid, PVA gel, 1.5 mg, 8.00 hrs
  Flux: 0.04 μg/min/cm^2
Exp #16, 10 mg/ml in 10 mM acetic acid, PVA gel, 1.5 mg, 9.00 hrs
  Flux: 0.04 μg/min/cm^2
Exp #16, 10 mg/ml in 10 mM acetic acid, PVA gel, 1.5 mg, 10.00 hrs
  Flux: 0.05 μg/min/cm^2
Exp #16, 10 mg/ml in 10 mM acetic acid, PVA gel, 1.5 mg, 11.00 hrs
  Flux: 0.06 μg/min/cm^2
Exp #16, 10 mg/ml in 10 mM acetic acid, PVA gel, 1.5 mg, 12.00 hrs
  Flux: 0.06 μg/min/cm^2
Exp #16, 10 mg/ml in 10 mM acetic acid, PVA gel, 1.5 mg, 13.00 hrs
  Flux: 0.08 μg/min/cm^2
Exp #16, 10 mg/ml in 10 mM acetic acid, PVA gel, 1.5 mg, 14.00 hrs
  Flux: 0.08 μg/min/cm^2
Exp #16, 10 mg/ml in 10 mM acetic acid, PVA gel, 1.5 mg, 15.00 hrs
  Flux: 0.08 μg/min/cm^2
Exp #16, 10 mg/ml in 10 mM acetic acid, PVA gel, 1.5 mg, 16.00 hrs
  Flux: 0.10 μg/min/cm^2
Exp #16, 10 mg/ml in 10 mM acetic acid, PVA gel, 1.5 mg, 17.00 hrs
  Flux: 0.10 μg/min/cm^2
Exp #16, 10 mg/ml in 10 mM acetic acid, PVA gel, 1.5 mg, 18.00 hrs
  Flux: 0.11 μg/min/cm^2
Exp #16, 10 mg/ml in 10 mM acetic acid, PVA gel, 1.5 mg, 19.00 hrs
  Flux: 0.11 μg/min/cm^2
Exp #16, 10 mg/ml in 10 mM acetic acid, PVA gel, 1.5 mg, 20.00 hrs
  Flux: 0.12 μg/min/cm^2
Exp #16, 10 mg/ml in 10 mM acetic acid, PVA gel, 1.5 mg, 21.00 hrs
  Flux: 0.11 μg/min/cm^2
Exp #16, 10 mg/ml in 10 mM acetic acid, PVA gel, 1.5 mg, 22.00 hrs
  Flux: 0.12 μg/min/cm^2
Exp #16, 10 mg/ml in 10 mM acetic acid, PVA gel, 1.5 mg, 23.00 hrs
  Flux: 0.12 μg/min/cm^2
Exp #16, 10 mg/ml in 10 mM acetic acid, PVA gel, 1.5 mg, 24.00 hrs
  Flux: 0.12 μg/min/cm^2
Exp #16, 10 mg/ml in 10 mM acetic acid, PVA gel, 1.5 mg, −1.00 hrs
  Flux: 0.00 μg/min/cm^2
